Reference: PubChem BioAssay (NCATS)
The list shows a part of the results, in another mix than the full data. Records with an inconclusive call do not appear. Activity calls are given as the source filed them. Calls follow the shape of the dose curve; as a rule, active = well fitted curve in the direction sought with a large enough effect; inconclusive = small, poorly fitted or top-dose-only effect, or another doubt; inactive = no such curve, though single readings can be large; an effect the other way counts as inactive or inconclusive.

Key:
[1] = P-glycoprotein substrates identified in KB-8-5-11 adenocarcinoma cell line, qHTS therapeutic library screen (AID 1346987); conditions: KB-8-5-11 (P-gp overexpressing) viability, CellTiter-Glo, 72 h; at 44.5 µM (top of the series); also: % is scaled to controls: 0 for no effect and ±100 for the full control effect; nearly all actives have a fitted effect of over 65% in size
Outline: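 KB-8-5-11, a colchicine-selected P-gp-overexpressing KB-3-1 subline, was grown without colchicine for the assay. Cells were seeded at 500 cells/well, dosed in concentration-response and incubated 72 h at 37 degree C, 5% CO2. Viability was read by CellTiter-Glo luminescence.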

[2] = qHTS Screen of the MIPE 4.0 Collection Against Ewings Sarcoma (TC71) (AID 1259253); conditions: TC71 Ewing sarcoma viability, CellTiter-Glo, 48 h; at 45.8 µM (top of the series);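 also: 100% = DMSO-treated cells and 0% = medium-only wells without cells; nearly all actives have a fitted effect of over 40% in size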
Description: There is a large unmet medical need for treatments for Ewing sarcoma, a pediatric sarcoma. We sought to identify compounds that inhibited Ewing sarcoma cells in vitro with the goal to then test promising drugs in two drug combinations in vitro to look for synergistic drug combinations. Promising combinations would then proceed to additional validation, including in vivo testing.
Using the NCATS developed oncology compound library called the Mechanism of Interrogation Plate (MIPE), four Ewing sarcoma cell lines were evaluated (TC32, TC71, RDES, EW8). Compounds, in a 12-point titration series, were incubated with cells for 48 hours and the read out was cell viability (CellTiter-Glo from Promega). These initial experiments were used to select appropriate concentrations of each single agent for subsequent two-drug matrix combinations such that the concentrations in the matrices would span both activity and non-activity.
Cells, in the log phase of growth, were seeded in 5 uL of RPMI plus 5% FBS, […] L-glutamine, 100 U/ml penicillin and 100 ug/ml streptomycin into 1536-well solid-bottom white tissue culture treated Greiner Bio One Plates (789173-F) using a MultiDrop Combi (Thermofisher Scientific) dispenser and a small sterile cassette. […] Plates were incubated at room temperature for 10 minutes prior to reading the luminescence on the Viewlux (PerkinElmer). […]

[3] = qHTS Screen of the MIPE 4.0 Collection Against Ewings Sarcoma (TC32) (AID 1259256); conditions: TC32 Ewing sarcoma viability, CellTiter-Glo, 48 h; also: potency is read from the fitted curve at half-maximal effect; nearly all actives have a fitted effect of over 45% in size
Outline: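 Cells plated in serum-containing RPMI (5% FBS) and treated with compound dilutions for 48 h. Readout luminescent viability; normalization relied on vehicle (no inhibition) and media-only columns (full inhibition).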

[4] = qHTS of pediatric cancer cell lines to identify multiple opportunities for drug repurposing: Primary screen for TC32 cells (AID 1347089); conditions: TC32 Ewing sarcoma viability, CellTiter-Glo luminescence, 48 h; at 45.8 µM (top of the series); also: % is scaled to controls: 0 for no effect and ±100 for the full control effect; nearly all actives have a fitted effect of over 60% in size
Description: Drug repurposing or repositioning has been offered as a strategy for drug development in oncology programs. This approach has special potential for childhood cancers and other rare or orphan diseases, where the expected return on new drug development has been a disincentive to pharmaceuticals.
In this project we exploit the poly-pharmacology of drugs to discover new indications via phenotypic screening of a panel of 19 well-characterized cell lines derived from solid tumors seen in children and adolescents. The goal is to identify approved drugs with previously unrecognized anticancer properties that has the potential to reveal new mechanisms and biological processes involved in carcinogenesis or drug resistance. We employed a titration-based paradigm (quantitative high-throughput screening or qHTS), where all compounds were tested at multiple concentrations for their effect on cell viability. Concentration-response curves (CRCs) were derived directly from the primary screen, and both potency and efficacy values were used to identify compounds with robust bioactivity profiles. We screened the NIH Chemical Genomics Center (NCGC) Pharmaceutical Collection (NPC) and Mechanism Interrogation Plate (MIPE) small molecule collections of approved and investigational compounds against these cell lines; and measured metabolically active cells after 48 hours of compound treatment as a proxy for cell viability.
Assay Submitter: Nathalia J. Martinez, National Center for Advancing Translational Sciences, National Institutes of Health, Rockville, MD, USA; email: natalia.martinez@nih.gov
[1] Shen, M et al. Quantitative high-throughput phenotypic screening of pediatric cancer cell lines identifies multiple opportunities for drug repurposing. Oncotarget 2017 Dec 19;9(4):4758-4772. PMID 29435139. […]
(§1) Cells were assayed in growth media at a density of 500-1,000 cells/well. […] After a 15min incubation at room temperature, samples were analyzed for luminescence intensity using a ViewLux High-throughput CCD imager equipped with clear filters.

[5] = qHTS of pediatric cancer cell lines to identify multiple opportunities for drug repurposing: Primary screen for DAOY cells (AID 1347090); conditions: DAOY medulloblastoma viability, CellTiter-Glo luminescence, 48 h; at 46 µM (top of the series);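 also: plate controls were DMSO for no effect and bortezomib for full effect; nearly all actives have a fitted effect of over 55% in size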
Outline: (§2)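 Cell viability, CellTiter-Glo luminescence; 500-1,000 cells/well, 8- or 11-point titration, 48 h compound exposure at 37 degrees C, 5% CO2. Controls: DMSO neutral, bortezomib 2.3 µM final as positive.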

[6] = qHTS of pediatric cancer cell lines to identify multiple opportunities for drug repurposing: Primary screen for SJ-GBM2 cells (AID 1347091); conditions: SJ-GBM2 viability, CellTiter-Glo luminescence, 48 h; at 46 µM (top of the series);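 also: plate controls were DMSO neutral control for no effect and bortezomib for full effect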
Outline: as §2

[7] = qHTS of pediatric cancer cell lines to identify multiple opportunities for drug repurposing: Primary screen for A673 cells (AID 1347092); conditions: A673 Ewing sarcoma viability, CellTiter-Glo ATP luminescence, 48 h; at 46 µM (top of the series); also: % is scaled to controls: 0 for no effect and ±100 for the full control effect; nearly all actives have a fitted effect of over 45% in size
Description: Drug repurposing or repositioning has been offered as a strategy for drug development in oncology programs. This approach has special potential for childhood cancers and other rare or orphan diseases, where the expected return on new drug development has been a disincentive to pharmaceuticals. […] In this project we exploit the poly-pharmacology of drugs to discover new indications via phenotypic screening of a panel of 19 well-characterized cell lines derived from solid tumors seen in children and adolescents. The goal is to identify approved drugs with previously unrecognized anticancer properties that has the potential to reveal new mechanisms and biological processes involved in carcinogenesis or drug resistance. We employed a titration-based paradigm (quantitative high-throughput screening or qHTS), where all compounds were tested at multiple concentrations for their effect on cell viability. Concentration-response curves (CRCs) were derived directly from the primary screen, and both potency and efficacy values were used to identify compounds with robust bioactivity profiles. We screened the NIH Chemical Genomics Center (NCGC) Pharmaceutical Collection (NPC) and Mechanism Interrogation Plate (MIPE) small molecule collections of approved and investigational compounds against these cell lines; and measured metabolically active cells after 48 hours of compound treatment as a proxy for cell viability. […] Shen, M et al. Quantitative high-throughput phenotypic screening of pediatric cancer cell lines identifies multiple opportunities for drug repurposing. […]
as §1, with “The cells were obtained from University of North Carolina (UNC), Pediatric Preclinical Testing Program (PPT), and Coriell Institute (CI). qHTS cell viability assay: Cells” for “Cells”

[8] = qHTS of pediatric cancer cell lines to identify multiple opportunities for drug repurposing: Primary screen for SK-N-MC cells (AID 1347093); conditions: SK-N-MC viability, CellTiter-Glo luminescence, 48 h; series mostly up to 46 µM; also: potency is read from the fitted curve at half-maximal effect;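 as to activity change, negative = cytotoxic: plate controls were DMSO neutral control for no effect and bortezomib for full effect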
[9] = qHTS of pediatric cancer cell lines to identify multiple opportunities for drug repurposing: Primary screen for BT-37 cells (AID 1347094); conditions: BT-37 viability, CellTiter-Glo luminescence, 48 h; at 57.3 µM (top of the series);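 also: plate controls were DMSO for no effect and bortezomib for full effect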
Outline: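 Primary screen of approved and investigational compounds on cells in growth media at 37 degrees C, 5% CO2. MIPE set at 11-point and NPC set at 8-point dilutions; viability scored by ATP-based luminescence at 48 hours.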

[10] = qHTS of pediatric cancer cell lines to identify multiple opportunities for drug repurposing: Primary screen for NB-EBc1 cells (AID 1347095); conditions: NB-EBc1 neuroblastoma viability, CellTiter-Glo luminescence, 48 h; at 46 µM (top of the series);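 also: plate controls were DMSO neutral control for no effect and bortezomib for full effect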

Compound	activity change, negative = cytotoxicity [1]	viability (% of DMSO) [2]	Potency [3]	activity change, negative = cytotoxic [4]	activity change, negative = cytotoxic [5]	activity change, negative = cytotoxic [6]	activity change, negative = cytotoxic [7]	Potency [8]	activity change, negative = cytotoxic [9]	activity change, negative = cytotoxic [10]
CC(=O)N1CCc2ccc(N(C(=O)/C=C/c3cccc(C#N)c3)C3CCN(CCC4CCCC4)CC3)cc21	inactive: -20.8%	–	–	–	–	–	–	–	–	–
CCOC(=O)C(=O)CBr	inactive: -0.609%	inactive: 120%	active: 4.7 nM	inactive: -2.01%	inactive: -10.6%	inactive: -4.58%	inactive: -28.9%	inactive	inactive: -0.426%	inactive: -7.09%
CCOC(=O)N1CCC(=O)CC1	–	–	–	inactive: 8.65%	inactive: 8.14%	inactive: 19.2%	inactive: 9.26%	active: 1 nM	inactive: 15.3%	inactive: 21.3%
CCC(=O)N(c1ccccc1)C1CCNCC1	–	–	–	inactive: -1.12%	inactive: -3.28%	inactive: 11.2%	inactive: -3.92%	–	inactive: 6.82%	inactive: 8.28%
